Values quoted from earlier work in patent publication US12458653B2, “Cannabis based therapeutic and method of use” (priority 2018, dated 2025).
Like-named read-outs stand apart in the source and are kept apart here.

Settings: for maximum Δ9-THC plasma concentration: oral administration

SMILES: CCCCCc1cc(O)c2c(c1)OC(C)(C)[C@@H]1CCC(C)=C[C@@H]21 [Δ9-THC, delta-9 tetrahydrocannabinol]
- maximum Δ9-THC plasma concentration (15 mg): 2.7 to 6.3 ng/mL
- maximum Δ9-THC plasma concentration (20 mg): 4.4 to 11 ng/mL
- time to maximum Δ9-THC plasma concentration (oral ingestion): 1 to 2 h
